Source: patent US20160333019A1, “SYNTHESIS AND FORMULATIONS OF PORPHYRIN COMPOUNDS” (Aeolus Sciences, Inc., priority 2013, published 2016)

How the values were obtained:
Type in all cases: physicochemical
[1] = Solubility assessment, slurry and gravimetric method
Method: Solubility Assessment. About 50 mg of solid was slurried in 0.75 mL of various solvents for one day. The slurry was centrifuged and the clear solution was used for gravimetric method. Table 4.1 presents the solubility data measured using this method in various solvents. About 10% error in measurement is expected.

[2] = Study 2: 75 mg/mL Formula (VI) in WFI at pH 7.0, 14 days at 60° C.; conditions: 75 mg/mL in water
Method: Study 2: 75 mg/mL Formula (VI) in WFI at pH 7.0 (14 days at 60° C.).
Formula (VI) was dissolved in WFI to a concentration of 75 mg/mL and gently mixed for 16-24 hours prior to adjusting the target pH 7.0 using either HCl or NaOH solution. The samples were filled in glass vials and capped with an air headspace. All samples were tested and evaluated for physicochemical stability under the storage conditions at 2-8 and 60° C. after 0, 3, 7 and 14 days.
Study 2 Protocol, 75 mg/mL Formula (VI) in WFI at pH 7.0 (14 days at 60° C.).
A 20 mL solution of 75 mg/mL Formula (VI) in WFI was prepared. About 10 g of WFI was placed in the container including a stir bar. […]
Solution #1: About 10.3 g of the 75 mg/mL Formula (VI) solution was transferred into a different container and mixed at room temperature for 16-24 hours. The pH was measured at approximately hourly intervals and at about 16 hours and 24 hours. […] The solution was filtered through a PVDF, 0.22 μm filter into a clean container and its pH measured.
Solution #2: The remaining 10.3 g of 75 mg/mL Formula (VI) solution in the original mixing container, was sparged with compressed air while mixing at room temperature. The pH was measured at 30 minutes then hourly thereafter for the 16-24 hour time period. […] The solution was filtered through a PVDF, 0.22 μm filter into clean container and the pH measured. […]

[3] = Study 5: 75 mg/mL Formula (VI) in WFI at various pH under ICH storage temperatures; conditions: pH 4 samples; below 60° C. storage; after 14 days
Method: Study 5: 75 mg/mL Formula (VI) in WFI at Various pH under ICH Storage Temperatures.
It was noticeable from Study 2 that drug stability was dependent on the pH. The lower the pH, the greater the chemical stability. Thus in this study, the chemical stability of 75 mg/mL Formula (VI) in water was evaluated at the pH range at 4-6 under the ICH storage temperatures i.e. 2-8, 25 and 40° C. An accelerated 60° C. storage temperature was also accessed in order to compare and generate a pH-stability profile of drug in water.
75 mg/mL Formula (VI) IN WFI at Various pH under ICH Storage Temperatures.
Solution 1: pH 4.0: A 20 mL solution of 75 mg/mL Formula (VI) in WFI was prepared. […] The pH was measured and the solution was mixed at room temperature for 16-24 hours. […] The pH of the samples was then measured. […] A sample was removed from each container after 3, 7 and 14 days the pH measured.
Solution 2: pH 5.0 A 20 mL solution of 75 mg/mL Formula (VI) in WFI was prepared. […] The pH was measured and the solution was mixed at room temperature for 16-24 hours. […] The pH of the samples was then measured. […] A sample was removed from each container after 3, 7 and 14 days the pH measured.
Solution 3: pH 6.0 A 20 mL solution of 75 mg/mL Formula (VI) in WFI was prepared. […] The pH was measured and the solution was mixed at room temperature for 16-24 hours. […] The pH of the samples was then measured. […]

[4] = solvent Heptane, slurried one day
[5] = solvent Isopropanol:Water (98:2)
[6] = solvent Tert-butyl methyl ether

For “[5,10,15,20-tetrakis(1,3-diethylimidazolium-2-yl)porphyrinato]manganese(III) chloride hydrate complex [Formula (VI)]”, the “Solubility (mg/mL) 25° C.” value ([1]; solvent 1,4 dioxane) was “— (— = not soluble)”, the “Solubility (mg/mL) 45° C.” value ([1]; solvent 1,4 dioxane) was “— (— = not soluble)” and the “Solubility (mg/mL) 25° C.” value ([1]; solvent Acetone) was “— (— = not soluble)”. The “Solubility (mg/mL) 45° C.” value ([1]; solvent Acetone) was 3 mg/mL, the “Solubility (mg/mL) 25° C.” value ([1]; solvent Acetonitrile:water) was greater than 70 mg/mL and the “Solubility (mg/mL) 45° C.” value ([1]; solvent Acetonitrile:water) was greater than 70 mg/mL. The “Solubility (mg/mL) 25° C.” value ([1]; solvent Acetonitrile) was greater than 70 mg/mL, the “Solubility (mg/mL) 45° C.” value ([1]; solvent Acetonitrile) was greater than 70 mg/mL and the “Solubility (mg/mL) 25° C.” value ([1]; solvent Cyclohexane) was less than 1 mg/mL. For the same substance, the “Solubility (mg/mL) 45° C.” value ([1]; solvent Cyclohexane) was 3 mg/mL, the “Solubility (mg/mL) 25° C.” value ([1]; solvent Diethyl ether) was 7 mg/mL and the “Solubility (mg/mL) 45° C.” value ([1]; solvent Diethyl ether) was 10 mg/mL. For the same substance, the “Solubility (mg/mL) 25° C.” value ([1]; solvent Dimethylformamide) was greater than 70 mg/mL, the “Solubility (mg/mL) 45° C.” value ([1]; solvent Dimethylformamide) was greater than 70 mg/mL and the “Solubility (mg/mL) 25° C.” value ([1]; solvent Ethanol) was greater than 70 mg/mL. The “Solubility (mg/mL) 45° C.” value ([1]; solvent Ethanol) was greater than 70 mg/mL, the “Solubility (mg/mL) 25° C.” value ([1]; solvent Ethyl Acetate) was 2 mg/mL and the “Solubility (mg/mL) 45° C.” value ([1]; solvent Ethyl Acetate) was 4 mg/mL. The “Solubility (mg/mL) 25° C.” value [1, 4] was 3 mg/mL, the “Solubility (mg/mL) 45° C.” value [1, 4] was 5 mg/mL and the “Solubility (mg/mL) 25° C.” value [1, 5] was greater than 70 mg/mL. The “Solubility (mg/mL) 45° C.” value [1, 5] was greater than 70 mg/mL, the “Solubility (mg/mL) 25° C.” value ([1]; solvent Isopropanol) was greater than 70 mg/mL and the “Solubility (mg/mL) 45° C.” value ([1]; solvent Isopropanol) was greater than 70 mg/mL. For the same substance, the “Solubility (mg/mL) 25° C.” value ([1]; solvent Methanol) was greater than 70 mg/mL, the “Solubility (mg/mL) 45° C.” value ([1]; solvent Methanol) was greater than 70 mg/mL and the “Solubility (mg/mL) 25° C.” value ([1]; solvent Methyl ethyl ketone) was 3 mg/mL. For the same substance, the “Solubility (mg/mL) 45° C.” value ([1]; solvent Methyl ethyl ketone) was 5 mg/mL, the “Solubility (mg/mL) 25° C.” value [1, 6] was 3 mg/mL and the “Solubility (mg/mL) 45° C.” value [1, 6] was 6 mg/mL. For the same substance, the “Solubility (mg/mL) 25° C.” value ([1]; solvent Tetrahydrofuran) was less than 1 mg/mL, the “Solubility (mg/mL) 45° C.” value ([1]; solvent Tetrahydrofuran) was 10 mg/mL and the “Solubility (mg/mL) 25° C.” value ([1]; solvent Toluene) was 6 mg/mL. For the same substance, the “Solubility (mg/mL) 45° C.” value ([1]; solvent Toluene) was 4 mg/mL, the “Solubility (mg/mL) 25° C.” value ([1]; solvent Water) was greater than 70 mg/mL and the “Solubility (mg/mL) 45° C.” value ([1]; solvent Water) was greater than 70 mg/mL. The pH shift ([2]; air sparged samples) was 1.5-2 pH units, the pH shift ([2]; non-sparged sample) was roughly 1 pH unit and the pH shift [3] was no more than 0.1 pH units.
